# Measured values reported in PubChem BioAssay (NCI).
# Some results for these compounds are left out of this collection, so the calls shown say nothing about other tests.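 Dose response: 5 concentrations. Exposure: 48 h. Format: 96-well plates. Endpoint: linear interpolation; highest concentration if not reached. GI50 marks 50% less growth. TGI is the concentration that stops growth completely.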
# Legend:
# Assay in all cases: NCI-60 cell line screen, 48 h
# [1] = tested on: U251 CNS
# [2] = tested on: SF-268 CNS
# [3] = tested on: SK-MEL-5 melanoma
# [4] = tested on: SNB-75 CNS
# [5] = tested on: M14 melanoma
# [6] = tested on: MDA-N
# [7] = tested on: UACC-62 melanoma
# [8] = tested on: RPMI-8226 leukemia
# [9] = tested on: MDA-MB-231 breast
# [10] = tested on: MDA-MB-435
# [11] = tested on: SN12C renal
# [12] = tested on: SF-295 CNS
# [13] = tested on: A498 renal
# [14] = tested on: OVCAR-4 ovarian
# [15] = tested on: SK-MEL-2 melanoma
# [16] = tested on: UACC-257 melanoma
# [17] = tested on: MCF7 breast
# [18] = tested on: HL-60(TB) leukemia
# [19] = tested on: SK-OV-3 ovarian
# [20] = tested on: SK-MEL-28 melanoma
# [21] = tested on: HS 578T breast
# [22] = tested on: NCI-H226 lung
# [23] = tested on: T-47D breast
# [24] = tested on: HCT-15 colon
# [25] = tested on: CCRF-CEM leukemia
# [26] = tested on: ACHN renal
# [27] = tested on: MOLT-4 leukemia
# [28] = tested on: NCI-H23 lung
smiles,measurement,setting,value
CN1CCCC(OC(=O)C(O)(C#Cc2ccccc2)c2ccccc2)C1 (stereo unspecified),GI50,[1],> 100 µM
same,TGI,[1],> 100 µM
same,GI50,[2],> 100 µM
same,TGI,[2],> 100 µM
same,GI50,[3],> 100 µM
same,TGI,[3],> 100 µM
same,GI50,[4],> 100 µM
same,TGI,[4],> 100 µM
same,GI50,[5],> 100 µM
same,TGI,[5],> 100 µM
same,GI50,[6],> 100 µM
same,TGI,[6],> 100 µM
same,GI50,[7],> 100 µM
same,TGI,[7],> 100 µM
same,GI50,[8],> 100 µM
same,TGI,[8],> 100 µM
same,GI50,[9],> 100 µM
same,TGI,[9],> 100 µM
same,GI50,[10],> 100 µM
same,TGI,[10],> 100 µM
same,GI50,[11],> 100 µM
same,TGI,[11],> 100 µM
same,GI50,[12],> 100 µM
same,TGI,[12],> 100 µM
same,GI50,[13],> 100 µM
same,TGI,[13],> 100 µM
same,GI50,[14],> 100 µM
same,TGI,[14],> 100 µM
same,GI50,[15],> 100 µM
same,TGI,[15],> 100 µM
same,GI50,[16],> 100 µM
same,TGI,[16],> 100 µM
same,GI50,[17],> 100 µM
same,TGI,[17],> 100 µM
same,GI50,[18],> 100 µM
same,TGI,[18],> 100 µM
same,GI50,[19],> 100 µM
same,TGI,[19],> 100 µM
same,GI50,[20],> 100 µM
same,TGI,[20],> 100 µM
same,GI50,[21],> 100 µM
same,TGI,[21],> 100 µM
same,GI50,[22],> 100 µM
same,TGI,[22],> 100 µM
same,GI50,[23],> 100 µM
same,TGI,[23],> 100 µM
same,GI50,[24],> 100 µM
same,TGI,[24],> 100 µM
same,GI50,[25],> 100 µM
same,TGI,[25],> 100 µM
same,GI50,[26],> 100 µM
same,TGI,[26],> 100 µM
same,GI50,[27],> 100 µM
same,TGI,[27],> 100 µM
same,GI50,[28],> 100 µM
same,TGI,[28],> 100 µM
